Viability data for one molecule are collected here from PubChem BioAssay AID2252 (Southern Research Specialized Biocontainment Screening …, 2010).

The list shows a part of the results, in another mix than the full data. Some tests of the compounds listed are not included; inactive here does not mean inactive elsewhere. Activity calls are given as the source filed them. The rule behind the calls is not given here.

The assay in a line: PubChem AID 2252.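 Note: 100% = mean of untreated cell control wells.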 The following applies: THP-1 viability, CellTiter-Glo luminescence, 72 h; at 50 µM (top of the series). (In ATP-based viability assays light output follows the ATP content of the culture.)
For orientation: viability means a read-out of living cells in per cent, often relative to untreated cells. As to `COc1ccc(C(=O)NCC2(N(C)C)CCCCC2)cc1`, the viability was inactive: 102%.
